In one assay the target is Cdk4/CyclinD1 (Homo sapiens (Human), UniProt P11802). Put plainly: Cdk4 kinase inhibition assay with recombinant Cdk4/CyclinD1, Rb substrate, [33P]-ATP filter plate. It counts as biochemical. As to conditions: 25 μM ATP, read-out: Cdk 4 IC50. As to the method: (§1) The Cdk4 and Cdk6 inhibitory activity of the compounds is measured with a kinase inhibition assay using recombinant Cdk4/CyclinD1 or Cdk6/CyclinD3 protein complexes. The protein substrate used in the assay is the retinoblastoma protein (Rb). The kinase reactions are carried out in a 96-well filter plate (MSDV N6B50, Millipore). […] The mixture is incubated at room temperature for 1 hour and the proteins precipitated with an equal volume of 20% TCA. The plates are washed with 10% TCA according to the manufacturer's instruction and dried at room temperature. The amount of the phosphorylated Rb is determined with a TopCount (PerkinElmer). The IC50 of a compound is determined by nonlinear regression curve fitting using software program Prism 5 (GraphPad Software).

Protein sequences, listed by entry. Tags and fused reporters are not part of them. Lines headed by an entry give the natural chain unless they say otherwise; changes in a name come on top.
UniProt P11802: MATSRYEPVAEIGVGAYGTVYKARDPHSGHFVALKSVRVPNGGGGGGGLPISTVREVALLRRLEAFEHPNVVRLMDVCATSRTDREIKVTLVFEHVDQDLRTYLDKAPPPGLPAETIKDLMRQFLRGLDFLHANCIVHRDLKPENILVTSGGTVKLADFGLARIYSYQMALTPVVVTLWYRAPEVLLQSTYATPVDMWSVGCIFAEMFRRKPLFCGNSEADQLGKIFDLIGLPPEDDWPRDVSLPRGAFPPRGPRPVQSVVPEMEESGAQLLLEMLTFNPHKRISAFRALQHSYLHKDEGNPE
UniProt Q00534, whole entry: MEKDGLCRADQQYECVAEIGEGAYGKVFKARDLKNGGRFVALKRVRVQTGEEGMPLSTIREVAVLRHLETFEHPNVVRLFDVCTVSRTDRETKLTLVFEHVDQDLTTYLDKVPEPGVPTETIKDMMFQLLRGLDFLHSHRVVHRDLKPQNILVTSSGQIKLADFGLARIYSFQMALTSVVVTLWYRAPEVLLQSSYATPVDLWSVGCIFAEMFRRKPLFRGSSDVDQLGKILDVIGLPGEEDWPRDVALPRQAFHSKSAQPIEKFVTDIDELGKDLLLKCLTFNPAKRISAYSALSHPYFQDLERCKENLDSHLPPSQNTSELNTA

A further assay has as its target Cdk6/CyclinD3 (Homo sapiens (Human), UniProt Q00534). Put plainly: Cdk6 kinase inhibition assay with recombinant Cdk6/CyclinD3, Rb substrate, [33P]-ATP filter plate. The assay is classed as biochemical. As to conditions: 25 μM ATP, read-out: Cdk 6 IC50. As to the method: as §1

One may read the IC50 as the concentration at which inhibition is half-maximal. Regarding `CN(C)[C@@H]1CN(c2ccc(Nc3ncc4c5ccncc5n(C5CCCC5)c4n3)nn2)CC[C@H]1O` (single isomer, unassigned) [Example 258b, (3R*,4R*)-1-(6-((9-Cyclopentyl-9H-pyrido[4′,3′:4,5]pyrrolo[2,3-d]pyrimidin-2-yl)amino)-3-pyridazinyl)-3-(dimethylamino)-4-piperidinol], the IC50 came to 5 nM on Cdk4/CyclinD1 and 24 nM on Cdk6/CyclinD3.

Take `c1ccc(-n2c3cnccc3c3cnc(Nc4ccc(N5CCNCC5)cc4)nc32)cc1` [Example 17, (9-Phenyl-9H-pyrido[4′,3′:4,5]pyrrolo[2,3-d]pyrimidin-2-yl)-(4-piperazin-1-yl-phenyl)amine]: at Cdk6/CyclinD3, the concentration for half-maximal inhibition (IC50) is 0.36 nM.

In the case of `c1cc2c3cnc(Nc4ccc(N5CCNCC5)cn4)nc3n(C3CCCCC3)c2cn1` [Example 23, (9-Cyclohexyl-9H-pyrido[4′,3′,4,5]pyrrolo[2,3-d]pyrimidin-2-yl)-(5-piperazin-1-yl-pyridin-2-yl)-amine], the IC50 on Cdk6/CyclinD3 came to 13.1 nM.

On to `c1cc2c3cnc(Nc4ccc(N5CCNCC5)cc4)nc3n(C3CC4CCC3C4)c2cn1` (centres unmarked) [Example 40, (9-Bicyclo[2.2.1]hept-2-yl-9H-pyrido[4′,3′:4,5]pyrrolo[2,3-d]pyrimidin-2-yl)-(4-piperazin-1-yl-phenyl)-amine], for which the IC50 on Cdk4/CyclinD1 was 4.9 nM.

For the molecule `CN(C)C1CCN(c2ccc(Nc3ncc4c5ccncc5n(C5CCCC5)c4n3)cn2)CC1` [Example 56, 9-cyclopentyl-N-(6-(4-(dimethylamino)-1-piperidinyl)-3-pyridinyl)-9H-pyrido[4′,3′:4,5]pyrrolo[2,3-d]pyrimidin-2-amine], the IC50 on Cdk4/CyclinD1 is 0.97 nM.

Regarding `CN(c1ccc(Nc2ncc3c4ccncc4n(C4CCCC4)c3n2)nc1)C1CCCNC1` (centres unmarked) [Example 68], the IC50 at Cdk4/CyclinD1 was found to be 4.1 nM.

As for `c1cc2c3cnc(Nc4ccc(NCC5CCCNC5)cn4)nc3n(C3CCCC3)c2cn1` (centres unmarked) [Example 71], the IC50 at Cdk4/CyclinD1 is 4.1 nM.

For `c1cc2c3cnc(Nc4ccc(N[C@@H]5CCNC5)nn4)nc3n(C3CCCC3)c2cn1` [Example 91], at Cdk6/CyclinD3, the IC50 was determined as 11.2 nM.

For the molecule `F[C@@H]1CCN(c2ccc(Nc3ncc4c5ccncc5n(C5CCCC5)c4n3)nn2)C1` [Example 119], the IC50 on Cdk4/CyclinD1 is 5.1 nM.

On to `OCCN1CCN(c2ccc(Nc3ncc4c5ccncc5n(C5CCCC5)c4n3)nc2)CC1` [Example 191, 2-(4-(6-((9-Cyclopentyl-9H-pyrido[4′,3′:4,5]pyrrolo[2,3-d]pyrimidin-2-yl)amino)-3-pyridinyl)-1-piperazinyl)ethanol], for which the half-maximal inhibitory concentration (IC50) on Cdk6/CyclinD3 worked out at 4.9 nM.

For the molecule `COC(=O)N1CCN(c2ccc(Nc3ncc4c5ccnc(F)c5n(C5CCCC5)c4n3)nc2)CC1` [Example 192, Methyl 4-(6-((9-cyclopentyl-8-fluoro-9H-pyrido[4′,3′:4,5]pyrrolo[2,3-d]pyrimidin-2-yl)amino)-3-pyridinyl)-1-piperazinecarboxylate], the IC50 on Cdk4/CyclinD1 amounted to 26.2 nM.

As to `c1cc2c3cnc(Nc4ccc(CN5CCNCC5)cn4)nc3n(C3CCCC3)c2cn1` [Example 212, 9-cyclopentyl-N-(5-(1-piperazinylmethyl)-2-pyridinyl)-9H-pyrido[4′,3′:4,5]pyrrolo[2,3-d]pyrimidin-2-amine], the IC50 at Cdk4/CyclinD1 was 34 nM; at Cdk6/CyclinD3, 33 nM.

With `O=S1(=O)CC=C(c2ccc(Nc3ncc4c5ccncc5n(C5CCCC5)c4n3)nc2)CC1` [Example 265, 9-Cyclopentyl-N-(5-(1,1-dioxido-3,6-dihydro-2H-thiopyran-4-yl)-2-pyridinyl)-9H-pyrido[4′,3′:4,5]pyrrolo[2,3-d]pyrimidin-2-amine], the IC50 at Cdk4/CyclinD1 and at Cdk6/CyclinD3 was 2.2 nM in each case.

Take `CN(CCO)c1ccc(Nc2ncc3c4ccncc4n(C4CCCC4)c3n2)nn1` [Example 291]: the IC50 on Cdk6/CyclinD3 is 6.9 nM.

(Values after patent publication US8841312B2, “Fused pyridine, pyrimidine and triazine compounds as cell cycle inhibitors” (Amgen Inc., priority 2007, dated 2014).)
